# Values of other authors in patent US20230312752A1 (Brown University, priority 2021, published 2023).
# The chains behind the UniProt entries cited, without tags or fusion partners.
# UniProt P06493, whole entry, species assumed: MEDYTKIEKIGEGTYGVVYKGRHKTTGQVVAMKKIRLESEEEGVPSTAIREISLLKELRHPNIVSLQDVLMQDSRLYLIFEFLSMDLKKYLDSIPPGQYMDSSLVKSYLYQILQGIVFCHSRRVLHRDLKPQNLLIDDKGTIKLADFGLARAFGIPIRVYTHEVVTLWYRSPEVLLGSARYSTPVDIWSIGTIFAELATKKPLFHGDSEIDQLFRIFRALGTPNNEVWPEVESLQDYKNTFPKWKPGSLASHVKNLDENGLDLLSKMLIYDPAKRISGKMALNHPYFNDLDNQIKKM
# UniProt P11802, whole entry, species assumed: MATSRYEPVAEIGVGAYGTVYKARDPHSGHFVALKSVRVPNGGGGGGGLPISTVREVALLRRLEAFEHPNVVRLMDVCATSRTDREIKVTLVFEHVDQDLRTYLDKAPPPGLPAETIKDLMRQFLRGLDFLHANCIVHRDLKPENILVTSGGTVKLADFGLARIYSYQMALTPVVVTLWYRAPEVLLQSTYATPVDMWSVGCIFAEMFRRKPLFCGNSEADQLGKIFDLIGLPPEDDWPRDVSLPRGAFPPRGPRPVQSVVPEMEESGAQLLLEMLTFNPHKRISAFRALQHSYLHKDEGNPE
# How the values were obtained:
# CDK1 = CDK1 (Homo sapiens, UniProt P06493); parameters: key to the marks not given beside the values; conditions: cited from earlier work
# CDK4 = CDK4 (Homo sapiens, UniProt P11802); parameters: key to the marks not given beside the values; conditions: cited from earlier work
smiles,measurement,setting,value
COc1ccc2c(c1)/C(=C/c1cnc[nH]1)C(=O)N2,Inhibitory potency CDK1,CDK1,+++
same,Inhibitory potency CDK4,CDK4,++
